The results in this text go back to patent publication US20210070687A1, “MOLECULAR WEIGHT CONTROLLING AGENT FOR RADICAL POLYMERIZATION, METHOD FOR PRODUCING POLYMER USING SAME, AND POLYMER” (SDP Global Co., Ltd., priority 2017, published 2021).

This is a selection: effects in other tests are not listed, and their absence says nothing.

The data set is described as follows: Solubility in water at 20° C. of the iodine compounds. To be noted: % means % by weight.

On to `N#CC(I)c1ccccc1` (stereo not shown), for which the “Solubility in water (20° C.)” value is listed as under 0.1%.
